Reference: ChEMBL document CHEMBL5223102, “CDK9 inhibitors in cancer research” (RSC Med Chem, 2022)

Sequences of proteins named here, by UniProt entry; tags and fusion partners are left off.
UniProt P50750, whole entry: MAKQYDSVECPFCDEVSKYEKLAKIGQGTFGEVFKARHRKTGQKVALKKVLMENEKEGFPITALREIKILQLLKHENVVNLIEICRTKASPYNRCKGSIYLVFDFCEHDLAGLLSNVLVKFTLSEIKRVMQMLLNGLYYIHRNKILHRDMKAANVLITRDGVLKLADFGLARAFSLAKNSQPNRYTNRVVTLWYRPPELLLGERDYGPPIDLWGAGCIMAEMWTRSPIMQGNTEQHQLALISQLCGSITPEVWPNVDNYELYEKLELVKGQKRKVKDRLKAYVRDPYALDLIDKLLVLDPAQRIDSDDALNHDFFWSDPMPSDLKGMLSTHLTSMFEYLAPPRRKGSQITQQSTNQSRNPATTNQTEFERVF

Key:
[1] = molecular target: T1, Cyclin-dependent kinase 9 (Homo sapiens, UniProt P50750)
[2] = molecular target: T1, Cyclin-dependent kinase 9; test: Inhibition of human CDK9 in human MV4-11 cells assessed as decrease in RNAP2 phosphorylation at Ser2 by western blot analysis; type: cell-based

IC50 [1]: < 5 nM
IC50 [2]: 96 nM
SMILES: COc1cc(F)ccc1-c1ccnc(NC(=O)[C@H]2CCC[C@@H](NC(C)=O)C2)c1
